Assay results taken from patent publication US20200270233A1, “DHFR INHIBITORS, COMPOSITIONS, AND METHODS RELATED THERETO” (Vyera Pharmaceuticais LLC, priority 2017, published 2020).

The chains behind the UniProt entries cited, without tags or fusion partners. Where a name states a change or a piece, a line headed by the entry shows the natural chain unless it says otherwise.
UniProt Q27783: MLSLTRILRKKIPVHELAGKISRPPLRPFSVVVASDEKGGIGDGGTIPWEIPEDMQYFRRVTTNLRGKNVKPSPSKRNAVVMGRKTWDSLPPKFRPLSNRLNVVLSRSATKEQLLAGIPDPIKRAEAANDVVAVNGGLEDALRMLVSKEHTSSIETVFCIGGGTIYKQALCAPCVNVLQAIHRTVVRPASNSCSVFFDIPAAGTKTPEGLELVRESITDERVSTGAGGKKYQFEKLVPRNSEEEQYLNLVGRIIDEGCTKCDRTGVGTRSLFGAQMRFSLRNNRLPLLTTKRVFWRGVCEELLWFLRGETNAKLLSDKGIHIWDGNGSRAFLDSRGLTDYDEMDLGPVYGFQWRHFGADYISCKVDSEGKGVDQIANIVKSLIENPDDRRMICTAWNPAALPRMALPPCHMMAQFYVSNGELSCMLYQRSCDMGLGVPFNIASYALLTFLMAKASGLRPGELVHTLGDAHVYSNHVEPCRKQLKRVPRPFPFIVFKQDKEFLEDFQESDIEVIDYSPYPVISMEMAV

target: T. brucei DHFR (tbDHFR) (Trypanosoma brucei brucei, UniProt Q27783); test: biochemical

SMILES	IC50 [nM]
Nc1ncc(N2CCN(c3ccccc3)CC2)c(N)n1 [Compound 4, 5-(4-phenylpiperazin-1-yl)pyrimidine-2,4-diamine]	31.6
Cc1ncc(-c2cccc(N3CCN(c4cnc(N)nc4N)CC3)c2)cn1 [Compound 69, 5-(4-(3-(2-methylpyrimidin-5-yl)phenyl)piperazin-1-yl)pyrimidine-2,4-diamine]	2
Nc1ncc(N2CCN(c3cccc(-c4cncnc4)c3)CC2)c(N)n1 [Compound 74]	5.62
COc1ncc(-c2cccc(N3CCN(c4cnc(N)nc4N)CC3)c2)cn1 [Compound 78, 5-(4-(3-(2-methoxypyrimidin-5-yl)phenyl)piperazin-1-yl)pyrimidine-2,4-diamine]	2.09
Nc1ncc(N2CCN(c3cccc(-c4cnc(C5CC5)nc4)c3)CC2)c(N)n1 [Compound 86]	2.51
Nc1ncc(N2CCN(c3cccc(-c4cnc(C(F)(F)F)nc4)c3)CC2)c(N)n1 [Compound 87]	7.41
CCc1ncc(-c2cccc(N3CCN(c4cnc(N)nc4N)CC3)c2)cn1 [Compound 95]	3.8
Nc1ncc(N2CCN(c3cccc(-c4cnc(Cl)nc4)c3)CC2)c(N)n1 [Compound 100]	2.51
